In patent US20240226306A1, “TREM-2/DAP-12 INHIBITORS FOR TREATING LUNG DISEASE AND INJURY AND COMBINATIONS THEREOF” (published 2024):

Legend:
TREM-1 = settings: pigs and primates; Derive et al. 2013, 2014; cited from earlier work
[1] = Solubility of peptides in water and formulation vehicles

LQEEDAGEYGCM
endotoxin-associated clinical and biological alterations (TREM-1): mitigates endotoxin-associated clinical and biological alterations | side effects (TREM-1): no obvious side effects

CC(C)C[C@H](NC(=O)[C@H](Cc1ccccc1)NC(=O)CN)C(=O)N[C@@H](CO)C(=O)N[C@@H](CCCCN)C(=O)N[C@@H](CO)C(=O)N[C@@H](CC(C)C)C(=O)N[C@H](C(=O)N[C@@H](Cc1ccccc1)C(=O)O)C(C)C
solubility in SBECD-based formulations (aqueous solution of Dexolve) [1]: dissolved | solubility in an aqueous solution of propylene glycol, ethanol and Tween-80 [1]: dissolved | solubility in water [1]: water-insoluble

CC[C@H](C)[C@H](NC(=O)[C@H](CCCCN)NC(=O)[C@@H](NC(=O)[C@H](CC(C)C)NC(=O)[C@H](Cc1ccccc1)NC(=O)[C@@H](NC(=O)[C@H](Cc1ccccc1)NC(=O)[C@@H](NC(=O)[C@H](CC(C)C)NC(=O)[C@H](CO)NC(=O)[C@H](CCCCN)NC(=O)[C@H](CO)NC(=O)[C@H](CC(C)C)NC(=O)[C@H](Cc1ccccc1)NC(=O)CN)C(C)C)[C@@H](C)CC)[C@@H](C)CC)C(=O)N[C@@H](CC(C)C)C(=O)N[C@@H](C)C(=O)N[C@@H](C)C(=O)O
solubility in SBECD-based formulations (aqueous solution of Dexolve) [1]: dissolved | solubility in water [1]: water-insoluble

CC[C@H](C)[C@H](N)C(=O)N[C@@H](Cc1ccccc1)C(=O)N[C@@H](CC(C)C)C(=O)N[C@H](C(=O)N[C@@H](CCCCN)C(=O)N[C@H](C(=O)N[C@@H](CC(C)C)C(=O)N[C@@H](C)C(=O)N[C@@H](C)C(=O)O)[C@@H](C)CC)[C@@H](C)CC
solubility in SBECD-based formulations (aqueous solution of Dexolve) [1]: not soluble | solubility in an aqueous solution of propylene glycol, ethanol and Tween-80 [1]: dissolved | solubility in water [1]: water-insoluble
